The entries are a selection whose mix differs from that of the whole data set. Inconclusive results are not listed. Activity calls are given as the source filed them. Calls come from the whole dose curve; as a rule, active = well fitted inhibition curve with a large enough effect; inconclusive = small, poorly fitted or top-dose-only effect; inactive = flat fitted curve, though single readings scatter.
Biological target: Luciferin 4-monooxygenase (Photinus pyralis) (UniProt P08659)
Assay: qHTS profiling assay for firefly luciferase inhibitor/activator using purifed enzyme and Km concentrations of substrates (counterscreen for miR-21 project);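 note: plate controls were vehicle for no effect and reference inhibitor for full effect; nearly all actives have a fitted effect of over 55% in size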
Settings: purified FLuc, luminescence inhibition; at 57.5 µM (top of the series)

Amino acid sequences for entries named in this document (tags omitted).
UniProt P08659, whole entry, looked up: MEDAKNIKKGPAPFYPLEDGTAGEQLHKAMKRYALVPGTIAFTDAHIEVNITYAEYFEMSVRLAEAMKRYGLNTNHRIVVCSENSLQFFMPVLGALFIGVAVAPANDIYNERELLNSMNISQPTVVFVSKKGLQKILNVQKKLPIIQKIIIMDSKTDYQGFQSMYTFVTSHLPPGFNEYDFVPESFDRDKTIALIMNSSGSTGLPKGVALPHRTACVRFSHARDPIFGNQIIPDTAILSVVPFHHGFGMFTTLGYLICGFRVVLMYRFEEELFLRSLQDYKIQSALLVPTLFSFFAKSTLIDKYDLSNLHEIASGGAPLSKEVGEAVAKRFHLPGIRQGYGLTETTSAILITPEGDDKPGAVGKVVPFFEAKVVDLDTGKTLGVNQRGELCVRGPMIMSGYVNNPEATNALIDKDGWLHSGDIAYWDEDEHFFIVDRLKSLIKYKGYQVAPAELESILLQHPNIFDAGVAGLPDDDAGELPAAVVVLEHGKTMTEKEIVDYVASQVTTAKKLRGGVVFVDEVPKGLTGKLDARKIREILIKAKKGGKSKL

Row | SMILES | activity change, negative = inhibition
1 | O=[As](O)(c1ccc(O)cc1)c1ccccc1O | inactive: 6.15%
2 | C[As](=O)(O)c1cccc(C(=O)O)c1 | inactive: 5.61%
3 | COc1cc(C(=O)NCC2(N3CCOCC3)CCCCC2)ccc1OCC(C)C | inactive: 3.35%
4 | Cc1ccc(OP(=O)(Nc2ccc([N+](=O)[O-])cn2)Oc2ccc(C)cc2)cc1 | inactive: 3.01%
5 | ClCCSc1nnc(-c2cccnc2)o1 | inactive: -13.8%
6 | CC(C)c1ccc(OP(=O)(Nc2ccccn2)Oc2ccccc2F)cc1 (configuration not stated) | inactive: -15.8%
7 | CCN(CC)C(=S)SC(NC=O)C(Cl)(Cl)Cl (configuration not stated) | inactive: -1.14%
8 | CC(C)NC(=O)NP(=O)(Oc1ccccc1)Oc1ccccc1 | inactive: -2.24%
9 | O=[N+]([O-])c1cc([N+](=O)[O-])c(-c2ccn[nH]2)s1 | inactive: -6.19%
10 | O=C(OC1CN2CCC1CC2)C12CC3CC(CC(C3)C1)C2 (configuration not stated) | inactive: -0.159%
11 | Cc1cc(=O)[nH]c(N[N+](=O)[O-])n1 | inactive: 4.24%
12 | COc1ccc2nc(NP(=O)(c3ccccc3)c3ccccc3)sc2c1 | inactive: -8.97%
13 | COc1cc(I)ccc1[As](=O)(O)O | inactive: 0.652%
14 | COc1ccc(N/C(=N/P(=O)(N2CCOCC2)N2CCOCC2)N2CCOCC2)cc1 | inactive: 1.48%
15 | COP1(=S)c2c(C)nn(CCC#N)c2N=C(c2ccc(F)cc2)N1C (configuration not stated) | inactive: 4.78%
16 | O=C(COc1ccccc1)OC1CN2CCC1CC2 (configuration not stated) | inactive: 0.253%
17 | O=C(Nc1ccncc1[N+](=O)[O-])c1ccc([N+](=O)[O-])cc1[N+](=O)[O-] | inactive: 2.4%
18 | O=C(OC1CN2CCC1CC2)c1cccc([N+](=O)[O-])c1 (configuration not stated) | inactive: 0.0578%
19 | CCC(C)N(CC(C)C)C(=S)SC(NC(C)=O)C(Cl)(Cl)Cl (configuration not stated) | inactive: 0.238%
20 | CCOC(=O)Nc1ccc([As](=O)(O)O)c(O)c1 | inactive: -0.941%
21 | CCCCOc1ccc(C(=O)NCC2(N3CCCCC3)CCCCC2)cc1OC | inactive: -2.19%
22 | Cc1cc(SC(NC(=O)c2ccccc2)C(Cl)(Cl)Cl)nc(C(C)C)n1 (configuration not stated) | inactive: 2.97%
23 | CCOC(=O)Nc1cccc([As](=O)(O)O)c1 | inactive: -3%
24 | O=P(Nc1ccccn1)(c1cccc2ccccc12)c1cccc2ccccc12 | inactive: -7.86%
25 | Cc1cc(SC(NC=O)C(Cl)(Cl)Cl)ncn1 (configuration not stated) | inactive: -4.93%
26 | O=[N+]([O-])c1ccc(Nc2ccc(Oc3ccc([N+](=O)[O-])cc3[N+](=O)[O-])cc2)c([N+](=O)[O-])c1 | inactive: 1.43%
27 | Cc1nn(-c2ccccc2)c2c1P(=O)(N1CCOCC1)N(C)C(c1ccccc1)=N2 (configuration not stated) | inactive: -1.87%

From PubChem BioAssay AID588342 (National Center for Advancing Translational Sciences (NCATS), 2011)
